PubChem BioAssay (NCI)
The entries are a selection whose mix differs from that of the whole data set. More than one record can exist for a structure, and the calls need not agree. Activity calls are given as the source filed them. Rule as the data show it: active = growth inhibition above about 70%; inactive = the rest.

Legend:
[1] = NCI Yeast Anticancer Drug Screen. Data for the rad50 strain (AID 155);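 also: 0% = growth of vehicle-only cultures of the same strain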; details: S. cerevisiae rad50 strain growth inhibition, hits give high values
[2] = NCI Yeast Anticancer Drug Screen. Data for the mec2-1 strain (AID 157); details: S. cerevisiae mec2-1 strain, hits give high values
[3] = NCI Yeast Anticancer Drug Screen. Data for the sgs1 mgt1 strain (AID 161);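 also: 0% = growth of cultures given vehicle only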; details: S. cerevisiae sgs1 mgt1 strain, hits give high values
[4] = NCI Yeast Anticancer Drug Screen. Data for the cln2 rad14 strain (AID 165);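 also: 0% = growth equal to vehicle treated cultures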; details: S. cerevisiae cln2 rad14 strain, hits give high values
[5] = NCI Yeast Anticancer Drug Screen. Data for the bub3 strain (AID 167); details: S. cerevisiae bub3 mutant strain, hits give high values
[6] = NCI Yeast Anticancer Drug Screen. Data for the mlh1 rad18 strain (AID 175); details: S. cerevisiae mlh1 rad18 strain growth inhibition, hits give high values
[7] = at 5.0 µM (retest, dose inferred, filed as 0.5)
[8] = at 50.0 µM (retest, dose inferred, filed as 5.0)

Measured: growth inhibition

O=C(O)c1c([N+](=O)[O-])cc([N+](=O)[O-])c(-c2ccc([N+](=O)[O-])cc2[N+](=O)[O-])c1[N+](=O)[O-]
active: [3]; at 50.0 µM 84% | [6]; at 50.0 µM 73.2%
inactive: [1]; [7] 10% | [1]; [8] 38% | [1]; at 50.0 µM 66.5% | [2]; [7] 7% | [2]; [8] 25% | [2]; at 50.0 µM 41.9% | [3]; [7] 12% | [3]; [8] 23% | [4]; [7] -3% | [4]; [8] 17% | [4]; at 50.0 µM 28.9% | [5]; [7] 4% | [5]; [8] 10% | [5]; at 50.0 µM 28.3% | [6]; [7] 13% | [6]; [8] 63%

C/C(=N\OC(C)([N+](=O)[O-])[N+](=O)[O-])[N+](=O)[O-]
inactive: [1]; [7] -151% | [2]; [7] -48% | [3]; [7] -64% | [4]; [7] -61% | [5]; [7] -53% | [6]; [7] -124%
active: [1]; [8] 89% | [1]; at 50.0 µM 99.7% | [2]; [8] 91% | [2]; at 50.0 µM 99.7% | [3]; [8] 81% | [3]; at 50.0 µM 99.5% | [4]; [8] 82% | [4]; at 50.0 µM 99.2% | [5]; [8] 85% | [5]; at 50.0 µM 99.5% | [6]; [8] 79% | [6]; at 50.0 µM 99.7%

CC(C)OP(C)(=O)O.[Er]
inactive: [1]; [7] 0% | [1]; [8] 4% | [1]; at 50.0 µM 9.45% | [2]; [7] 4% | [2]; [8] -3% | [2]; at 50.0 µM 27.2% | [3]; [7] -3% | [3]; [8] -1% | [3]; at 50.0 µM 0.9% | [4]; [7] 2% | [4]; [8] -3% | [4]; at 50.0 µM 62.1% | [5]; [7] 0% | [5]; [8] -4% | [5]; at 50.0 µM 2% | [6]; [7] 30% | [6]; [8] -5% | [6]; at 50.0 µM -1.95%

CCN(CC)CCOC(=O)C(O)(c1ccccc1)c1c(C)cccc1C (stereo not drawn)
inactive: [1]; [7] -1% | [1]; [8] -4% | [1]; at 50.0 µM 32.6% | [2]; [7] 4% | [2]; [8] 15% | [2]; at 50.0 µM 21.1% | [3]; [7] -5% | [3]; [8] -17% | [3]; at 50.0 µM 55.5% | [4]; [7] -2% | [4]; [8] -1% | [4]; at 50.0 µM 14.3% | [5]; [7] -4% | [5]; [8] -2% | [5]; at 50.0 µM 17.1% | [6]; [7] 11% | [6]; [8] -8% | [6]; at 50.0 µM 59.8%

O=[N+]([O-])C(F)(COCC(O)CO)[N+](=O)[O-] (stereo not drawn)
inactive: [1]; at 1.2 µM -7% | [1]; at 3.7 µM 0% | [1]; [7] 19% | [1]; at 11.0 µM 31% | [1]; at 33.0 µM 67% | [1]; at 50.0 µM 70% | [2]; at 1.2 µM -11% | [2]; at 3.7 µM -19% | [2]; [7] -6% | [2]; at 11.0 µM -11% | [2]; at 33.0 µM 41% | [2]; [8] 53% | [2]; at 50.0 µM 35.7% | [3]; [7] 34% | [4]; [7] 5% | [4]; [8] 64% | [4]; at 50.0 µM 63% | [5]; at 1.2 µM -44% | [5]; at 3.7 µM -30% | [5]; [7] 1% | [5]; at 11.0 µM -40% | [5]; at 33.0 µM 23% | [5]; [8] 65% | [5]; at 50.0 µM 42.3% | [6]; [7] 44%
active: [1]; [8] 81% | [1]; at 100.0 µM 88% | [2]; at 100.0 µM 92% | [3]; [8] 86% | [3]; at 50.0 µM 83.1% | [5]; at 100.0 µM 84% | [6]; [8] 87% | [6]; at 50.0 µM 71.3%

Nc1ccccc1.O=[N+]([O-])c1cc([N+](=O)[O-])cc([N+](=O)[O-])c1
inactive: [1]; at 1.2 µM -2% | [1]; at 3.7 µM 4% | [1]; [7] 16% | [1]; at 11.0 µM 45% | [2]; at 1.2 µM 1% | [2]; at 3.7 µM 6% | [2]; [7] 23% | [2]; at 11.0 µM 42% | [3]; [7] 34% | [4]; [7] 7% | [5]; at 1.2 µM -2% | [5]; at 3.7 µM 2% | [5]; [7] 25% | [5]; at 11.0 µM 43% | [6]; [7] 27%
active: [1]; at 33.0 µM 98% | [1]; [8] 99% | [1]; at 50.0 µM 99.6% | [1]; at 100.0 µM 98% | [2]; at 33.0 µM 99% | [2]; [8] 100% | [2]; at 50.0 µM 99.7% | [2]; at 100.0 µM 99% | [3]; [8] 99% | [3]; at 50.0 µM 99.8% | [4]; [8] 99% | [4]; at 50.0 µM 96.8% | [5]; at 33.0 µM 98% | [5]; [8] 99% | [5]; at 50.0 µM 99.2% | [5]; at 100.0 µM 99% | [6]; [8] 99% | [6]; at 50.0 µM 85.1%
